Earlier results, collected in patent US7727952B2, “Methods for treating spinal and bulbar muscular atrophy using LHRH analogs” (priority 2002, dated 2010).

Details: Danek et al., 1994, Goldenberg et al., 1996, Neuschmid-Kaspar et al.; cited from earlier work

For `CCCCCCC(=O)O[C@H]1CC[C@H]2[C@@H]3CCC4=CC(=O)CC[C@]4(C)[C@H]3CC[C@]12C` [testosterone, testosterone enanthate], the “effects as a therapeutic agent for SBMA” value is given as “insufficient and transient effects”.
